# Results as given in patent US10214584B2, “Therapeutic pharmaceutical composition employing anti-SLC6A6 antibody” (ORDER-MADE MEDICAL RESEARCH INC., priority 2014, dated 2019).
# Test system: cells
# Test: Internalization by flow cytometry with surface quench by anti-Alexa Fluor 488 antibody
# Type: cell-based
# Settings: labeled antibody 30 μg/mL, 1 hour room temperature and 3 hours 37° C., FIG. 13B
# Procedure: Analysis was performed on an isotype control (whole human IgG was used as a negative control), cetuximab (Cetuximab), the 402 human-mouse chimeric antibody (Chimeric 402), the 430 human-mouse chimeric antibody (Chimeric 430) and the 4B9b human-mouse chimeric antibody (Chimeric 4B9b), each being labeled with Alexa Fluor 488. These antibodies were analyzed for their internalization by flow cytometry using cells treated in two ways.
# For the first way, the following operations were performed. Cells detached from culture dishes were suspended in staining buffer [PBS(−)-3% fetal bovine serum]. […] After being further rotated with a rotator at 37° C. for 3 hours, the cells were washed three times with the staining buffer and then measured for fluorescence signals by flow cytometry (FIG. 13B; isotype control, chimeric antibody).
# The second way is to confirm that the fluorescence in the cells obtained in the first way arises from the dye conjugated to the antibody taken up into the cells. The cells obtained in the first way were reacted at 4° C. for 1 hour with an antibody binding to Alexa Fluor 488 and thereby quenching its fluorescence (anti-Alexa Fluor 488, rabbit IgG antibody fraction: anti-Alexa Fluor 488 antibody) at a final concentration of 50 μg/mL to observe changes in fluorescence intensity (FIG. 13B; surface quench). […]
substance,measurement,value
cetuximab: anti-EGFR antibody [reference compound],fluorescence upon addition of the anti-Alexa Fluor 488 antibody (surface quench),partially disappeared
